Measured values as given in patent US7217704B2, “LPA receptor agonists and antagonists and methods of use” (The University of Tennessee Research Foundation, priority 2003, dated 2007).

Protein sequences, listed by entry. Tags and fused reporters are not part of them.
UniProt Q9HBW0, whole entry: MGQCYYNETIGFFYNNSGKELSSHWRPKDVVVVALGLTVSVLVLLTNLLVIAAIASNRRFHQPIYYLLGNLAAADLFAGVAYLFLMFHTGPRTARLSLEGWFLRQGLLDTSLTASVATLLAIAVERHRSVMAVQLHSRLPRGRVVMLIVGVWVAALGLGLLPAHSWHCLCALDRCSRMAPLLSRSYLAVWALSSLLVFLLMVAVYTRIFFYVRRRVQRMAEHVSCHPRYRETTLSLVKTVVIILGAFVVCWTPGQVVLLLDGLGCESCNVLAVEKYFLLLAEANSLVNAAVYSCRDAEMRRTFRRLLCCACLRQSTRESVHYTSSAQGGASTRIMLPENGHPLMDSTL
UniProt Q9UBY5, whole entry: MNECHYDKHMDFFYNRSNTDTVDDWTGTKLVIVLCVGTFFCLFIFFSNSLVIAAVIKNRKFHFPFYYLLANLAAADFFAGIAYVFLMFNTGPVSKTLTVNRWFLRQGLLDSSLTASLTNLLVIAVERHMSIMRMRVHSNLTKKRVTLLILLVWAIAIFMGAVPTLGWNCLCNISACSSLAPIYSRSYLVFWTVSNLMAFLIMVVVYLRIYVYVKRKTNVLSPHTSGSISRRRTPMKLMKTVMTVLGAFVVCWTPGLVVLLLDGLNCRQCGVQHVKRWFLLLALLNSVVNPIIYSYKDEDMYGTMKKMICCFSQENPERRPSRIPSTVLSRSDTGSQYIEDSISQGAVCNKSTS
UniProt Q92633, whole entry: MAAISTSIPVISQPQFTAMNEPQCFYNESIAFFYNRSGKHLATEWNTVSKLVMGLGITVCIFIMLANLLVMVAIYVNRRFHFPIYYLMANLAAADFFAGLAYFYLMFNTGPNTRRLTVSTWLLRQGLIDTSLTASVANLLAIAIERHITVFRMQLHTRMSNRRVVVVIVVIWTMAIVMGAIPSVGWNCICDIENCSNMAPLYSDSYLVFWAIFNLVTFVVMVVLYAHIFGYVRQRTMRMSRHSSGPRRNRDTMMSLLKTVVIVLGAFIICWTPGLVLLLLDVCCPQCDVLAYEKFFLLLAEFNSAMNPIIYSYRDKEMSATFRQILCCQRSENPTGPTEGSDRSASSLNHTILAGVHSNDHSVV

Legend:
LPA2 = LPA2 (Homo sapiens, UniProt Q9HBW0); assay: Ca2+ transients (agonism / inhibition of LPA response) in RH7777 cells stably expressing LPA2; format: cell-based
LPA3 = LPA3 (Homo sapiens, UniProt Q9UBY5); assay: Ca2+ transients (agonism / inhibition of LPA response) in RH7777 cells stably expressing LPA3; format: cell-based
PC-3 cells = assay: Ca2+ transients in PC-3 cells endogenously expressing LPA1-3; format: cell-based, human; conditions: maximal efficacy of the drug/maximal efficacy of LPA 18:1
LPA1 = LPA1 (Homo sapiens, UniProt Q92633); assay: Ca2+ transients (agonism / inhibition of LPA response) in RH7777 cells stably expressing LPA1; format: cell-based; conditions: read-out: LPA1 IC50, inhibition of LPA-induced Ca2+ transients

effect at LPA2 in words (LPA2; Ca2+ transients): weak agonist
EC50 (LPA2; read-out: LPA2 EC50, induction of Ca2+ transients): > 10 µM
IC50 (LPA2; read-out: LPA2 IC50, inhibition of LPA-induced Ca2+ transients): > 30 µM
LPA3 (Emax) (LPA3; maximal efficacy of the drug/maximal efficacy of LPA 18:1): (100) %
IC50 (LPA3; read-out: LPA3 IC50, inhibition of LPA-induced Ca2+ transients, RH7777 cells expressing LPA3): > 30 µM
IC50 (LPA1): > 30 µM
Structure (SMILES): CCCCCCCCCCCCCCCC(=O)N[C@@H](COP(=O)(O)O)C(=O)O
PC-3 (Emax) (PC-3 cells): −(42) %
